Patent US6660837 (KIRIN BEER, dated 2003)

Target: T1, PKNN2 (N-terminal region of PKN, amino acid sequence 1-474), 35S-labeled, in vitro translated (human, UniProt Q16512, in part, [35S]methionine label)
T1 construct: also called in vitro translated PKN-N; PKN prepared by in vitro translation
Experiment: GST pull-down of 35S-labeled in vitro translated PKNN2

binding result: no binding
B1: GST-spectrin repeat 20 of rat α-spectrin (other, UniProt P08515 1-218, looked up)
chain: MSPILGYWKIKGLVQPTRLLLEYLEEKYEEHLYERDEGDKWRNKKFELGLEFPNLPYYIDGDVKLTQSMAIIRYIADKHNMLGGCPKERAEISMLEGAVLDIRYGVSRIAYSKDFETLKVDFLSKLPEMLKMFEDRLCHKTYLNGDHVTHPDFMLYDALDVVLYMDPMCLDAFPKLVCFKKRIEAIPQIDKYLKSSKYIAWPLQGWQATFGGGDHPPKLFLTFAKKASAFNSWFENAEEDLTDPVRCNSLEEIKALREAHDAFRSSLSSAQADFNQLAELDRQIKSFRVASNPYTWFTMEALEETWRNLQKIIKERELELQKEQR
notes: also called GST-spectrin repeat 20 of α-spectrin
